# Measurements published in PubChem BioAssay AID504915 (The Scripps Research Institute Molecular Screening Center, 2011).
# Chains of the proteins cited; added tags and fusions are not shown.
# UniProt P47898, whole entry: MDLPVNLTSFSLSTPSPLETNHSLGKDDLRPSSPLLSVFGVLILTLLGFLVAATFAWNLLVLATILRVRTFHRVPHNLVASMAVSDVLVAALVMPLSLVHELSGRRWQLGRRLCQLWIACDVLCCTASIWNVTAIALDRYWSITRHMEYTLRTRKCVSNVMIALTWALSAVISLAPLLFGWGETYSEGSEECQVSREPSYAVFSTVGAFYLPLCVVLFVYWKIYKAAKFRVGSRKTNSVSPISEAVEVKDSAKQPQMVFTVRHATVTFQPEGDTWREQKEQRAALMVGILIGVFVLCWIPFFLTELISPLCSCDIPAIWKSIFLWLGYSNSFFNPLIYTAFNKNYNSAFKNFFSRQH
# This is a selection; strong and weak results do not stand in their true shares. Calls of active or inactive are those of the source. Rule as the data show it: active = activation above about 17%; inactive = the rest.
# Biological target: 5-hydroxytryptamine receptor 5A (Homo sapiens) (UniProt P47898)
# Test: HTR5A agonists, retest of hits, confirmation, cell-based, luminescence (AID 504915);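 also: 0% = cells with vehicle only and 100% = full reference agonist response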
# Conditions: HTR5A agonist cell assay, at 9.3 µM, stronger effect = higher value
compound,measurement,value
Cc1ccc(NP(C)(=O)Oc2ccccc2)c(C)c1 (stereo unspecified),activation,inactive: -3.56%
